The target of this assay is Sigma intracellular receptor 2 (Homo sapiens, UniProt Q5BJF2).

Sequences of proteins named here, by UniProt entry; tags and fusion partners are left off.
UniProt Q5BJF2, whole entry: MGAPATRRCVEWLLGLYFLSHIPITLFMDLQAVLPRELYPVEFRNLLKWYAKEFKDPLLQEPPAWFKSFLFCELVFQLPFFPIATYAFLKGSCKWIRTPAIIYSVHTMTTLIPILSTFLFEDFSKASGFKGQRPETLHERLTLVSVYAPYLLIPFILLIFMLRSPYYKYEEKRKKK

Each structure is given as a SMILES string.

For orientation: Ki means a dissociation constant, usually derived from enzyme kinetics or from competition with a known ligand. Low values mean tighter binding, high ones weaker binding. In the case of `COc1cccc2c1CCCC2CCCN1CCN(C2CCCCC2)CC1` (stereo unspecified), the Ki is 2.51 nM. This counts as single-digit nanomolar.

The values above are taken from ChEMBL document CHEMBL4303773 (Nature, 2020).
